Amino acid sequences for entries named in this document (tags omitted).
UniProt Q15858, whole entry: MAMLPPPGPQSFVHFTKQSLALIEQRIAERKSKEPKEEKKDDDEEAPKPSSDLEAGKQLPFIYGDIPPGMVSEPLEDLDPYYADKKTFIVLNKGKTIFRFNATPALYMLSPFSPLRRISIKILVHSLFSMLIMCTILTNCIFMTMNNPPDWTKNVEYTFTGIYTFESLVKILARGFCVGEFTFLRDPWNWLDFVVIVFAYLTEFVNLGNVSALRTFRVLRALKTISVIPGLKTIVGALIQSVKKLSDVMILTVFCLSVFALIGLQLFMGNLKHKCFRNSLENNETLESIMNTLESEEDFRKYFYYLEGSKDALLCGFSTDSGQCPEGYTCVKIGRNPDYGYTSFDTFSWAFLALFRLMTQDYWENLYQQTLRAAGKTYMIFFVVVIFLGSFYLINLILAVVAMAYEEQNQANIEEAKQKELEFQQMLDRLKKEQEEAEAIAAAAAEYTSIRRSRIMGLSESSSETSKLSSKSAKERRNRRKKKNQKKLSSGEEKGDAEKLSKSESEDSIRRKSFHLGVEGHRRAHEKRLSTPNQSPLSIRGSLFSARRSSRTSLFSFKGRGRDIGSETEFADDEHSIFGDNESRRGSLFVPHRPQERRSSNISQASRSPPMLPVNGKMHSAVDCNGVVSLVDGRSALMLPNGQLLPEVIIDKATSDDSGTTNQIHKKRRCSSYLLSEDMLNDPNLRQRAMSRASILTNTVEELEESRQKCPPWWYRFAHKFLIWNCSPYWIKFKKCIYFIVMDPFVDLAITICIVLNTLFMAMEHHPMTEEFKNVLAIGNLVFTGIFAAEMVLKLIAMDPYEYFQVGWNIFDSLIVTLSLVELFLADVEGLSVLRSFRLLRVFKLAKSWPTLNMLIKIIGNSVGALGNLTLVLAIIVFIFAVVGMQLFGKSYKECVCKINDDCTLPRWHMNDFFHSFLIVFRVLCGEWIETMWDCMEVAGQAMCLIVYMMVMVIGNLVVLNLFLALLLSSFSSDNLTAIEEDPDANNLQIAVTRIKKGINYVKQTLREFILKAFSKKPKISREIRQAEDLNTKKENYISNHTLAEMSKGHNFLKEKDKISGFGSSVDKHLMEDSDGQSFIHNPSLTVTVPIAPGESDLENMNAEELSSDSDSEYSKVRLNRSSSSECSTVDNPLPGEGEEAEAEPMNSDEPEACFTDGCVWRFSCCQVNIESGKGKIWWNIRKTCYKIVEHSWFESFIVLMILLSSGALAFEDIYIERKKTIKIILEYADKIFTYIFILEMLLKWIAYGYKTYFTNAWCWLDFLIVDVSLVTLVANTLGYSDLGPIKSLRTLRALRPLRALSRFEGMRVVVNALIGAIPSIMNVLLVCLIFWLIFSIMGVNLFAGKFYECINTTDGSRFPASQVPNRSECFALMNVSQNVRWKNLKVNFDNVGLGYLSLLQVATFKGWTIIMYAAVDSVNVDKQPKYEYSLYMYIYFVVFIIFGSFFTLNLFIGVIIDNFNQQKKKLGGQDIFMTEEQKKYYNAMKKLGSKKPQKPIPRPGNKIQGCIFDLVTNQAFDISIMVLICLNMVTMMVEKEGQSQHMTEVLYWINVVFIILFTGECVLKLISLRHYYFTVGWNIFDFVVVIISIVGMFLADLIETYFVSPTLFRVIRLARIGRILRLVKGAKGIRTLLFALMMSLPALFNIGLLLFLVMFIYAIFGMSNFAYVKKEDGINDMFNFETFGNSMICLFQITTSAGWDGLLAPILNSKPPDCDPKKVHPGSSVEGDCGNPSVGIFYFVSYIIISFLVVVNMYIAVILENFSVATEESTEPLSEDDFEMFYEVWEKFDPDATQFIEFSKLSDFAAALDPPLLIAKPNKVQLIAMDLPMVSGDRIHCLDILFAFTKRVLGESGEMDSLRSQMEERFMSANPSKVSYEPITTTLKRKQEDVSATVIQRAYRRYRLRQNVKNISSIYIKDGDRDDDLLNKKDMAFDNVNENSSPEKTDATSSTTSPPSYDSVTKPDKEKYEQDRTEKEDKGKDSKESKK

In patent US10189859B2, “Derivatives of 6-(2,3-dichlorophenyl)-1,2,4-triazin-5-amine” (Nektar Therapeutics, priority 2013, dated 2019):

Molecular target: Nav1.7 sodium channels (human SCN9A gene) (Homo sapiens (Human), UniProt Q15858)
Assay: Automated patch clamp (IonWorks Barracuda) of Nav1.7 stably expressed in CHO cells
Assay type: cell-based
Description: The potencies of the compounds provided herein to block specific Na+ channels was measured using automated patch clamp electrophysiologically of Nav1.7 sodium channels (human SCN9A gene) stably expressed in CHO cells using the IonWorks™ Barracuda system. Currents were measured from the whole cell patch configuration. From a holding potential of −90 mV, membranes were subjected to a 200 ms pre-pulse to −120 mV, then pulsed to 0 mV to measure blockade of the tonic (resting) state. Inactivated state block was elicited by repolarization to −100 mV (20 ms pulse duration), followed by depolarization to 0 mV (20 ms pulse duration). Peak inward Na+ currents were measured in the presence of vehicle or various concentrations of the test compound to determine the percent block of current. Concentration-response relationships were used to calculate IC50 values for the illustrative compounds.

IC50 (inactivated state block, read-out: Inactivated state IC50): 187 µM
IC50 (tonic (resting) state block, read-out: Tonic state IC50): > 200 µM
Structure (SMILES): COC[C@@H](O)CO[C@H]1CCN(c2nnc(-c3cccc(Cl)c3Cl)c(N)n2)C1 [Compound 71, (R)-1-(((S)-1-(5-Amino-6-(2,3-dichlorophenyl)-1,2,4-triazin-3-yl)pyrrolidin-3-yl)oxy)-3-methoxypropan-2-ol]

Read-outs that look alike come from different tables or passages of the source.
